Ab-14 light chain CDR variants: yeast mating affinities

Binding partner: SARS-CoV-2 spike HR2 peptide, sequence PDVDLGDISGINAS.

Parent: Ab-14, a human scFv built as VH, three GGGGS repeats, VL. Only the CDRs of the light chain vary.
VH: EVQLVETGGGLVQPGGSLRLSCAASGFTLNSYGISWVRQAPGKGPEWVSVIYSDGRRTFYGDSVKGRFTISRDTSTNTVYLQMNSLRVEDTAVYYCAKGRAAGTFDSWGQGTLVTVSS
VL: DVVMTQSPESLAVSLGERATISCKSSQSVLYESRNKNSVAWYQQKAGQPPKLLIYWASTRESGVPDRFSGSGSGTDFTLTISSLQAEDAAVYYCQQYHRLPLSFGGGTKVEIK

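Phage display of a naive human antibody library on the peptide gave the parent. The library (AAYL50) carries one to three amino acid substitutions per variant, with no insertions or deletions. The assay is AlphaSeq: two haploid yeast populations carry antibody and antigen on their surface. After mating in shaken culture at 30 °C for 16 h, diploids were selected and their barcode pairs sequenced. The ratio of observed to expected reads was calibrated, replicate by replicate, on BCL2-family standards whose Kd was known from biolayer interferometry. The assay was run in three technical replicates.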

Variants are written as CDR1, CDR2 and CDR3 of the light chain (limits as in the source). Parent: KSSQSVLYESRNKNSVA, WASTRES, QQYHRLPLS.
Affinities are written as log10 Kd with Kd in nM; a lower number is a better binder.
The mean shown is taken over the replicates in which the pair was detected.
A pair that was not seen in any replicate is written "nd"; this usually means weak binding, but a binder can also be missed.
Background: pairings of library AAYL50 with three empty control strains gave a value in 18% of cases (median 4.19, 5th percentile 2.99). Values in that range, when seen in few replicates, are hard to tell from nonspecific mating.

log10 Kd (nM), mean | seen in | CDR-L1 | CDR-L2 | CDR-L3
nd | 0/3 | KSSQSVLYESRNHNSVA | WAITRES | QQYPRLPLS
nd | 0/3 | KSSQSLLYESRNKNSVA | WADTRES | QQYHRLELS
1.51 | 3/3 | KSSQSVLYESRNNMSVA | WASRRES | QQYHRLPLS
3.12 | 2/3 | KNSQSVLYESRNKNPVA | WASTREL | QQYHRLPLS
nd | 0/3 | KSSQSVLYISRNKNSVA | WKSTRES | QQYHRLPLS
3.40 | 1/3 | KSSQSVLYESRNDNSVA | WASTRES | QYYHRLTLS
nd | 0/3 | WSSQSVVYESRNKNDVA | WASTRES | QQYHRLPLS
6.10 | 1/3 | KSSQSVLYESRNKNSVC | WASTNES | QQYVRLPLS
nd | 0/3 | KSSQSVLYESRNHNSVA | IPSTRES | QQYHRLPLS
nd | 0/3 | LSSQSVLYESRNKNSVA | WASTRES | DQYHALPLS
3.79 | 2/3 | KSSQSVLYESRKKNSVA | WASTRES | QQYHRWPDS
5.50 | 1/3 | KSSQSVLYEFRNKNSVA | EASTRDS | QQYHRLPLS
2.45 | 3/3 | KSSDSVLYESRNKNSVA | WASTKES | QQYHRLPTS
1.37 | 3/3 | KSSQSVLHESRNKNSVA | WQETRES | QQYHRLPLS
-0.30 | 3/3 | KFSQSVLSESRNKNSVA | YASTRES | QQYHRLPLS
3.79 | 2/3 | KSSQSVLYESRNKNIVA | WACTRES | QQYHREPLS
1.14 | 3/3 | KCSQSVLYESRNKNQVA | WASTRES | QGYHRLPLS
nd | 0/3 | KSSQSVLYESRNKNSVA | WASKRES | VQYHRLPLS
3.65 | 1/3 | KSSMSVLYESRNKNSVP | WASTRES | QAYHRLPLS
2.61 | 1/3 | KSSQSVLYELKYKNSVA | WASTRES | QQYHRLPLS
3.33 | 3/3 | KSSQSVLYESRNKNSVA | WASTRNS | QQYHKLPLS
nd | 0/3 | KSSQSVLYESRNKNSVP | WASTRES | QQYHPLPLR
4.79 | 3/3 | KSVQSKLYESRNKNSVA | WASTRES | QQYHRLPHS
4.15 | 1/3 | KSSQSVLYESRNKESVA | WASTRES | QQYHRWYLS
4.77 | 1/3 | FSSQSVLYESRNKNSVA | WASTRES | QNYHRLPNS
2.07 | 3/3 | KSSQSVLYESRNKNSMA | WASTRDS | QQYHRLPLS
0.50 | 3/3 | KSSQSVLYESRNKNHVA | DASTRES | QQYHWLPLS
nd | 0/3 | KSSQSVLYESRNKNSGA | WFCTRES | QQYHRLPLS
4.77 | 3/3 | KSSQSVLYESRNKNSVA | WASTRES | QQYHNQPWS
nd | 0/3 | KSSVSVLYESRNKNSVA | WASGRES | QQYHRLPLQ
0.74 | 3/3 | KSSQSVLYESRNTNSVA | WASTRES | QQYHRLPCS
0.32 | 3/3 | KLSQSVCYESRNKNSVA | WASTRES | QQYHRLPLS
-0.16 | 3/3 | KISQSVLYESRNKNSVA | WAQTRES | QQYHRLPLS
1.56 | 3/3 | ESSASVLYESRNKNSVA | WASTRES | QQYHRLPLY
2.79 | 3/3 | KSSQSVLYESRNKNSVA | WASQRES | YQHHRLPLS
-0.67 | 3/3 | KSSQSVLFESRNKNSVA | DASTRES | QQYHRLPLS
nd | 0/3 | KSSQSVLYESRNKNSCA | WASTRES | QQYHRLYWS
3.65 | 1/3 | KSSQSGCYESRNKNSVA | WASTRES | QQYHRLPLS
1.85 | 3/3 | KSSQVVLYESRNKNSVA | WASTRES | QQYHRLTSS
1.29 | 3/3 | KSSQNVLYESRNKNSVA | WASTRES | QQYHFLPLW
nd | 0/3 | KSLQSVLYESRNKNSVA | WASTRES | QQYARAPLS
2.04 | 3/3 | KSSQSVHYESRWKNSVA | FASTRES | QQYHRLPLS
3.31 | 3/3 | KSSQSVLRESRIKNSVA | WASTRES | QQYHRLPSS
0.97 | 3/3 | KSSQSVLYASRNTNSVA | WASTREK | QQYHRLPLS
1.90 | 3/3 | KSSQSVLYKSRNKNSVA | WASTRES | QQYHRLPES
4.80 | 2/3 | KSSQSVLYESINKNSVA | WISTCES | QQYHRLPLS
3.18 | 1/3 | KISQSVLYESNNKNSQA | WASTRES | QQYHRLPLS
4.62 | 2/3 | KSHQSVKYESRNKNSVA | WASTRES | QQYERLPLS
1.30 | 3/3 | KSSQSVLYESRNKNSVA | WASHRES | QQYHRLGLS
2.21 | 2/3 | KSSQSVLYESRNKNSVA | WAHTRES | QQTHRLPLS
2.98 | 1/3 | KSSQSVLYESRNKASVA | WASTVES | QQFHRLPLS
0.07 | 3/3 | VSSQSVLYESRNKNSVA | GASTRES | QQYHRLPLA
1.47 | 3/3 | KSSQSCLYESRNGNSVA | WASTRES | QQYHRLPLP
nd | 0/3 | KSSQKVLYESRNKNSVA | IASTRES | QQYGRLPLS
nd | 0/3 | KHSQSVLHESRNKNSVA | WASTRES | MQYHRLPLS
nd | 0/3 | KSSQSVLYCSRNKNNVT | WASTRES | QQYHRLPLS
nd | 0/3 | KSSQSVPYESRNKNSVA | WLSTRES | QQYHRLPWS
1.31 | 3/3 | KSSQSVLYHSRNPNSVA | WASTRNS | QQYHRLPLS
4.67 | 3/3 | KSSQSVLNESRNKNSVN | WASERES | QQYHRLPLS
2.68 | 2/3 | KSSQSVLYEGRPKNSVA | WASTRES | QLYHRLPLS
2.26 | 3/3 | KSSQSVWYESRNKGSVA | WASTRES | QSYHRLPLS
2.05 | 3/3 | FSSQSNLYESRNKNSVA | WASTRES | QQYHRLPDS
0.24 | 3/3 | KSSQSVLYEDVNKNSVA | WASTRNS | QQYHRLPLS
1.06 | 3/3 | KSSQSVLYESRNYNSVA | WASTRES | QQYHTLPLS
1.43 | 3/3 | KSSQSVLYESENNCSVA | WASTRES | QQYHRLPLS
3.33 | 1/3 | KSSQDVLYESRNKNSVA | WASTREC | IQYHRLPLS
3.84 | 2/3 | KSSQSVRYESRNKNSCA | WASTRES | QQYHRLPAS
1.54 | 3/3 | KSSQSVLYESRNKNSVA | WASTREY | QWYHRLPLE

The opening 6 entries, copied out:

CDR-L1	CDR-L2	CDR-L3	log10 Kd (nM), mean	seen in
KSSQSVLYESRNHNSVA	WAITRES	QQYPRLPLS	nd	0/3
KSSQSLLYESRNKNSVA	WADTRES	QQYHRLELS	nd	0/3
KSSQSVLYESRNNMSVA	WASRRES	QQYHRLPLS	1.51	3/3
KNSQSVLYESRNKNPVA	WASTREL	QQYHRLPLS	3.12	2/3
KSSQSVLYISRNKNSVA	WKSTRES	QQYHRLPLS	nd	0/3
KSSQSVLYESRNDNSVA	WASTRES	QYYHRLTLS	3.40	1/3

Reference: Engelhart et al. 2022, doi:10.1038/s41597-022-01779-4. File: FLAb, binding data.